ALDH1A1 block: blocks purified human ALDH1A1 activity; P00352; Purified ALDH1A1, NADH fluorescence, propionaldehyde substrate; Potency, µM (doses to about 75.3 µM), inactives show at the top dose activity, negative = inhibition, usual class: inhibitors; 220,000 compounds, 7.3% hits; active means well fitted inhibition curve with a large enough effect, not every such curve was filed as active; inconclusive means small, poorly fitted or top-dose-only effect, or another doubt; inactive means no such curve, though single readings can be large or run the other way;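 further: potency means the concentration at half of the fitted maximal effect; plate controls were no enzyme wells and a reference inhibitor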
KDM4E inh: inhibitors of human JMJD2E histone demethylase; Potency, µM (series often up to 57.1 µM), inactives show top-dose activity change, negative = inhibition, hits mostly inhibitors; JMJD2E catalytic domain, FDH-coupled NADH fluorescence (FDH is formaldehyde dehydrogenase); B2RXH2; 230,000 compounds, 1.6% hits; active means well fitted inhibition curve with a large enough effect, not every such curve was filed as active; inconclusive means small, poorly fitted or top-dose-only effect, or another doubt; inactive means no such curve, though single readings can be large or run the other way;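 further: potency means the concentration at half of the fitted maximal effect; 0% = wells with enzyme and -100% = buffer wells without enzyme; nearly all actives have a fitted effect of over 50% in size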
G9a block: inhibitors of human histone lysine methyltransferase G9a. Q96KQ7. G9a H3K9 monomethylation, AlphaScreen, 2 h. 350,000 compounds, 8.8% hits. Potency, µM (doses to about 102 µM), for the others: top-dose activity, negative = inhibition, hits mostly inhibitors; further: potency means the concentration at half of the fitted maximal effect; on the % scale 0 is the no-effect control and ±100 the full control effect; nearly all actives have a fitted effect of over 75% in size
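Quantitative HTS format: methyltransferase activity on a biotin-tagged H3K9 peptide is measured by AlphaScreen, using a rabbit anti-monomethyl-H3K9 antibody with streptavidin donor and anti-IgG acceptor beads. Final levels are 20 nM enzyme, 500 nM peptide, 20 uM SAM; 2 h RT.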
LMNA splice mod: changes lamin A minigene splicing in HeLa cells; AID 1487; Potency, µM (titrated, usually from 46.1 µM), for inactives: at the top dose ratio change, negative = inhibition, most hits filed as inhibitors; HeLa LMNA splicing GFP/RFP minigene ratio, 48 h; 200,000 compounds, 0.01% hits; active means well fitted inhibition curve with a large enough effect in the signal ratio, with a control signal flat, not every such curve was filed as active; inconclusive means small, poorly fitted or top-dose-only effect, or effect the other way, or a change in a side signal; the % refers to the signal ratio; further: potency means the concentration at half of the fitted maximal effect; on the % scale 0 is the no-effect control and ±100 the full control effect
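S3 HeLa cells stably expressing lamin A-EGFP splicing minigene plus DsRed2, 600 cells/well, 48 h compound exposure at 37C. Laser-scanning cytometry; analysed as GFP (500-530 nm)/RFP (575-640 nm) total intensity ratio; 0.5% DMSO vehicle.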
Sfp inh: blocks B. subtilis Sfp PPTase activity. AID 1490. Q9F4F7. Biochemical Sfp PPTase activity, qHTS. hit rate 3.5% among 310,000. Potency, µM, for the others: max response, negative = inhibition, usual class: inhibitors; active = well fitted inhibition curve with a large enough effect; inconclusive = small, poorly fitted or top-dose-only effect, or another doubt; inactive = no such curve, though single readings can be large or run the other way;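 also: the enzyme is Sfp with the accession as filed and its product quenches rhodamine fluorescence; potency is read from the fitted curve at half-maximal effect; 0% = enzyme reaction without inhibitor and -100% = no enzyme wells; top concentration of the series not given in the record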
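Reaction rates are the 30-min fluorescence difference (ex 525, em 598 nm) in wells containing 15 nM Sfp, 5 uM rhodamine-CoA and 12.5 uM BHQ-2-YbbR at pH 7.6 with 10 mM MgCl2.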
miR-21 reporter: raises the signal of a miR-21 reporter | Potency, µM (doses to about 38.3 µM), for inactives: top-dose reporter change, positive = more light | HeLa miR-21 FLuc reporter, luciferase, 48 h | AID 2288 | 340,000 tested, under 10 active; active = well fitted rising curve with a large enough effect; inconclusive = small, poorly fitted or top-dose-only effect; inactive = no such curve, though single readings can be large or run the other way;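 also: % of control where 0% means no effect; miR-21 action dims this reporter so a rising signal means less miR-21 action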
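HeLa cells stably expressing CMV-driven firefly luciferase with a downstream miR-21 binding sequence, endogenously expressing miR-21, were treated with titrations (up to about 40uM final) for 48 hours at 37 degree Celsius. Luciferase luminescence was read after lysis.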
* = called active by the depositor; ? = inconclusive; nt = not tested or not shown; [ ] = remark or other dose. In the library only some 13% were active in any assay of this set; here they are far more common. Unless noted, the call rests on the fitted dose curve; in most records, active means well fitted curve in the direction sought with a large enough effect; inconclusive means small, poorly fitted or top-dose-only effect, or another doubt; inactive means no such curve, though single readings can be large; an effect the other way counts as inactive or inconclusive.

SMILES	ALDH1A1 block	KDM4E inh	G9a block	LMNA splice mod	Sfp inh	miR-21 reporter
CC(C)N(C(=O)Cn1cc(SCC(=O)NCc2ccco2)c2ccccc21)C(C)C	8.5%	2.9%	3.4%	nt	-2.9%	8.2%
O=C(CSc1cn(CCNC(=O)c2ccccc2)c2ccccc12)NCC1CCCO1 (stereo not drawn)	nt	nt	1.4%	nt	6.6%	10.1%
O=C(CSc1ccccc1C(=O)NCCCN1CCCC1=O)NCc1ccco1	?	?	?	17.3%	44.7µM*	-5.0%
O=C(CSc1cn(CCNC(=O)c2ccccc2)c2ccccc12)NCc1ccco1	?	-11.4%	39.8µM*	2.8%	?	4.4%
COc1cccc(Nc2ncc3nc(-c4cn(C)c5ccccc45)c(=O)n(C[C@H]4CCCO4)c3n2)c1	8.7%	nt	9.8%[0.501 µM]	?	17.4%	nt
Cc1cc(C)c(NC(=O)CSc2nc(=O)n(Cc3cccnc3)c3c2CCC3)c(C)c1	nt	nt	12.0%[59 µM]	?	nt	1.9%
Cn1c2c(c(=O)[nH]c1=O)C(c1cccc(O)c1)C1=C(N2)c2ccccc2C1=O (stereo not drawn)	-0.9%	?	31.6µM*	nt	1.9%	6.0%
COc1cc(Cl)nn(-c2ccccc2)c1=O	-0.9%	-0.2%	25.3%[59 µM]	?	0.1%	-0.3%
O=c1c(Cl)cc(Cl)nn1-c1ccccc1	31.6µM*	4.2%	19.2%[59 µM]	?	9.5%	?
Cc1cccc(-n2cnc3cc(C(=O)N4CCCCC4)ccc32)c1	3.98µM*	6.2%	-48.9%	4.1%	7.0%	-62.1%
CCCCCNC(=O)c1ccc2c(c1)ncn2-c1cccc(C)c1	nt	nt	-16.9%[59 µM]	-25.3%[46 µM]	nt	-1.2%
O=S(=O)(Nc1ccc(O)c(Sc2nc3ccccc3s2)c1)c1cc(Cl)ccc1Cl	nt	nt	11.2µM*	nt	nt	-8.4%
O=S(=O)(Nc1ccc(O)c(Sc2nc3ccccc3s2)c1)c1cccc2ccccc12	-1.1%	-0.4%	44.7µM*	?	10.5%	26.9%
Cc1cc(S(=O)(=O)Nc2ccc(O)c(Sc3nc4ccccc4s3)c2)ccc1Cl	nt	nt	-48.7%[59 µM]	nt	nt	18.8%
O=S(=O)(Nc1ccc(O)c(Sc2nc3ccccc3s2)c1)c1ccc(F)cc1	?	2.6%	4.6%[59 µM]	?	2.7%	-1.7%
N#CCCn1nc(-c2ccccc2)c2ccccc2c1=O	nt	nt	nt	nt	8.7%	-1.6%
CCN(CC)C(C)C#CCC(c1ccccc1)c1ccccc1 (stereo not drawn)	nt	-5.2%	nt	nt	26.8%	22.5%
OCC#CCSc1nnc(-c2ccc(Br)cc2)o1	11.6%	2.6%	-10.6%	-11.4%	19.1%	-34.2%
OCC#CCSc1nnc(-c2ccccc2Br)o1	20µM*	5.8%	-29.4%[12.7 µM]	7.9%	-4.5%	-38.6%
COc1ccc(-c2nnc(SCC#CCO)o2)cc1OC	-9.8%	-17.9%	15.8µM*	1.3%	-1.4%	-15.1%
COc1ccc(OCC(=O)Nc2ccc(C)c(S(=O)(=O)N(C)C)c2)cc1	28.2µM*	-17.5%	-29.9%	-23.3%[46 µM]	-2.4%	-1.2%
COC(=O)c1ccccc1NC(=O)CNCCc1ccc(OC)c(OC)c1	nt	nt	7.94µM*	nt	-27.1%	-7.6%
Cc1ccc(NC(=O)Cc2ccc(Cl)c(Cl)c2)cc1S(=O)(=O)N(C)C	?	-12.8%	1.2%[59 µM]	?	-6.1%	15.5%
CN(C)S(=O)(=O)c1cc(NC(=O)CNCc2ccc(F)cc2)ccc1Cl	nt	nt	3.55µM*	nt	?	-12.0%
COc1ccc(CCNCC(=O)Nc2ccc(C)c(S(=O)(=O)N(C)C)c2)cc1OC	15.8µM*	?	22.4µM*	nt	?	1.2%
O=S(=O)(c1cccc(F)c1)N1CCC(c2nc3ccccc3s2)CC1	nt	nt	-25.2%[59 µM]	nt	nt	7.6%
COc1ccc(CCNC(=O)C2CC2)cc1OC	1.8%	4.8%	?	11.9%	19.5%	-3.6%
COc1ccc(CCNCC(=O)N2C(C)CCCC2C)cc1OC (stereo not drawn)	?	31.6µM*	-10.1%	12.2%[9.22 µM]	-16.8%	-0.9%
COc1ccc(CCNCC(=O)Nc2ccc(C)c(Br)c2)cc1OC	nt	nt	39.8µM*	nt	-18.3%	-3.2%
Cc1ccc(CNC(=O)c2ccc3c(c2)N(Cc2ccccc2Cl)C(=O)CS3)cc1	nt	nt	4.0%[59 µM]	nt	nt	12.0%
COc1ccccc1-n1c(C)c(C(=O)O)c2cc(OC)c3ccccc3c21	nt	nt	?	nt	-4.3%	-0.5%
Cc1ccccc1CN1C(=O)c2ccccc2S(=O)c2ccc(C(=O)NCc3ccco3)cc21 (stereo not drawn)	nt	nt	-10.0%[59 µM]	nt	nt	-7.7%
Cc1ccc2nc(NC(=O)CSc3nc4c(c(=O)n3C)SC(C)C4)sc2c1 (stereo not drawn)	14.1µM*	6.4%	-32.0%	-21.5%	2.2%	-14.2%
O=C(Nc1ccccc1)C(Cc1ccccc1)N1Cc2ccccc2C1=O (stereo not drawn)	nt	nt	-23.1%[59 µM]	2.5%[46 µM]	nt	-3.7%
COc1ccc(Cl)cc1NC(=O)c1ocnc1C	-8.2%	0.2%	50.1µM*	9.3%	-2.7%	-8.6%
COc1ccc(Cl)cc1NC(=O)c1c(C(=O)Nc2cccc(C)c2C)sc2nc(C)cc(=O)n12	nt	nt	11.2µM*	nt	nt	-0.9%
COc1ccc(N(Cc2cccs2)C(=O)COc2cc(C)c(Cl)c(C)c2)cc1	nt	nt	54.4%[59 µM]	?	nt	7.9%
CCn1c2ccccc2c2nnc(NN)nc21	15.8µM*	-21.2%	?	?	-12.4%	-10.9%
CCCCn1c2ccc(F)cc2c2nnc(NN)nc21	2.24µM*	-7.1%	50.1µM*	?	-1.2%	-10.4%
CCn1c2ccc(C)cc2c2nnc(NN)nc21	25.1µM*	-9.6%	50.1µM*	6.7%	-16.6%	-13.1%
CCCn1c2ccc(F)cc2c2nnc(SCCN(CC)CC)nc21	nt	nt	-29.7%[59 µM]	-20.5%[46 µM]	nt	-8.8%
Cn1c2ccccc2c2nnc(NN)nc21	nt	?	nt	nt	?	-0.4%
O=C1CCCc2oc3c(c21)CCCC3	?	4.3%	50.1µM*	nt	18.2%	-1.0%
CC(C)[C@H](/C=C/C[Si](C)(C)C)[C@H](C)C(O)/C=C/CCCOC(=O)C(C)(C)C (stereo partly drawn)	nt	nt	nt	nt	4.6%	nt
O=c1c2c(-c3ccccc3)csc2ncn1/N=C/c1cccc([N+](=O)[O-])c1O	1.4%	-6.6%	39.8µM*	?	4.9%	0.7%
O=C(O)/C=C/C(=O)Nc1ccccc1SC(F)(F)F	11.2µM*	5.8%	8.91µM*	-14.8%	12.6µM*	-0.8%
O=C(O)/C=C\C(=O)Nc1cccc2c1-c1ccccc1C2=O	1.0%[13.5 µM]	nt	nt	nt	nt	nt
O=C(O)/C=C/C(=O)Nc1ccccc1-c1ccccc1NC(=O)/C=C/C(=O)O	-6.9%	?	10µM*	-6.3%	7.94µM*	-1.0%
O=C(O)/C=C/C(=O)Nc1c(F)cccc1F	?	-25.1%	50.1µM*	17.0%[46 µM]	-5.7%	-1.4%
COc1ccc(-c2ocnc2C(=O)N2CCN(C(=O)C(c3ccccc3)c3ccccc3)CC2)cc1	nt	nt	50.1µM*	nt	-10.2%	6.3%

Of the compounds above, these contain bromine.
SMILES	ALDH1A1 block	KDM4E inh	G9a block	LMNA splice mod	Sfp inh	miR-21 reporter
OCC#CCSc1nnc(-c2ccc(Br)cc2)o1	11.6%	2.6%	-10.6%	-11.4%	19.1%	-34.2%
OCC#CCSc1nnc(-c2ccccc2Br)o1	20µM*	5.8%	-29.4%[12.7 µM]	7.9%	-4.5%	-38.6%
COc1ccc(CCNCC(=O)Nc2ccc(C)c(Br)c2)cc1OC	nt	nt	39.8µM*	nt	-18.3%	-3.2%
